These are literature values, as cited in patent US20040115309A1, “Food supplement” (priority 2000, published 2004).

For this series the following is noted: horses.

As to `Cn1c(=O)c2[nH]cnc2n(C)c1=O` [theophylline], the “Therapeutic level (blood concentration)” value was 10 µg/mL and the “Toxic levels (blood concentration)” value was 15 µg/mL.
